From article PMC4749168, “Potentiation of ΔF508- and G551D-CFTR-Mediated Cl^- Current by Novel Hydroxypyrazolines” (PLoS ONE, 2016)
“And” between values parts separate entries of the source, which are not always exact repeats. Equal entries are not always repeated.

Sequences of proteins named here, by UniProt entry; tags and fusion partners are left off. A change or cut given only in a name is not applied to a line headed by its entry. A line that says so, or that is headed by a name, gives the form on record, which may keep a tag or linker. Residues count along the entry.
UniProt P13569, 1-1480 with tags or gaps DEL508-508: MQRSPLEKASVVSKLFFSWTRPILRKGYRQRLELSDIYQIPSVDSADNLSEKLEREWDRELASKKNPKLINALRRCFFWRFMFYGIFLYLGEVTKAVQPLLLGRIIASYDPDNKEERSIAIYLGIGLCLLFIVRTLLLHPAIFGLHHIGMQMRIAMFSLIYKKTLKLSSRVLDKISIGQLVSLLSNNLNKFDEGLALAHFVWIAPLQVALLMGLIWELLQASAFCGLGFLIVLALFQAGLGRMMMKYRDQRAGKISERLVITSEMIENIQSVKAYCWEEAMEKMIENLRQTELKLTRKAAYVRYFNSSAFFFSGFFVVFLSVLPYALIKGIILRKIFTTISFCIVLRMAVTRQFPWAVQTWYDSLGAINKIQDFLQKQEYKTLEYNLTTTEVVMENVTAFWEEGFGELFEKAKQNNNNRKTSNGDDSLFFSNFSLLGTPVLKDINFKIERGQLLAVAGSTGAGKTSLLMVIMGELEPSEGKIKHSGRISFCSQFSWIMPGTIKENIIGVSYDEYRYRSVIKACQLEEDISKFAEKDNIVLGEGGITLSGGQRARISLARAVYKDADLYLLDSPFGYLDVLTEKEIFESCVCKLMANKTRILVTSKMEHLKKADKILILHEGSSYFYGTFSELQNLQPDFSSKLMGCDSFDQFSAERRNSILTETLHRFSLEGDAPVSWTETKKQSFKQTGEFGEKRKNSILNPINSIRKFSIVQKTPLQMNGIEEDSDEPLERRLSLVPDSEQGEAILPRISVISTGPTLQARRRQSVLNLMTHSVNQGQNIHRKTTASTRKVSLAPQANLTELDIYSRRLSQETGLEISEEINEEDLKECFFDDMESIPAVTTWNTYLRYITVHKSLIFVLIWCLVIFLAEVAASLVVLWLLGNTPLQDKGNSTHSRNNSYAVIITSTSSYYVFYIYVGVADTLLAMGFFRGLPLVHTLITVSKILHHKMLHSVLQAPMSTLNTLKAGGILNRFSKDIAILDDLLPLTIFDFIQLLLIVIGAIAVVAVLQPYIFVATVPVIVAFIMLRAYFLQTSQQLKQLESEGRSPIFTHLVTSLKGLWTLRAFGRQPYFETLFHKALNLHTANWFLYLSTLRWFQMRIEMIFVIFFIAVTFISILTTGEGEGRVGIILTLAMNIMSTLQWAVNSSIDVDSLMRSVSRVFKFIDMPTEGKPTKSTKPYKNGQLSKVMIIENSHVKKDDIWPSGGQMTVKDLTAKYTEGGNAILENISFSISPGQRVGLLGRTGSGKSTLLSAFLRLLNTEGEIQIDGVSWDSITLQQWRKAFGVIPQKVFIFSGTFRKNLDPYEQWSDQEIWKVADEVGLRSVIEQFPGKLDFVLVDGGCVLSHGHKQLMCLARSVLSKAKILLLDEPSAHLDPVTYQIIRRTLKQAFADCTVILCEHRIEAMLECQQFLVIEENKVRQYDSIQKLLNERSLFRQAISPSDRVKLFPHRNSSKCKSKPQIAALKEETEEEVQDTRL
UniProt P13569, whole entry: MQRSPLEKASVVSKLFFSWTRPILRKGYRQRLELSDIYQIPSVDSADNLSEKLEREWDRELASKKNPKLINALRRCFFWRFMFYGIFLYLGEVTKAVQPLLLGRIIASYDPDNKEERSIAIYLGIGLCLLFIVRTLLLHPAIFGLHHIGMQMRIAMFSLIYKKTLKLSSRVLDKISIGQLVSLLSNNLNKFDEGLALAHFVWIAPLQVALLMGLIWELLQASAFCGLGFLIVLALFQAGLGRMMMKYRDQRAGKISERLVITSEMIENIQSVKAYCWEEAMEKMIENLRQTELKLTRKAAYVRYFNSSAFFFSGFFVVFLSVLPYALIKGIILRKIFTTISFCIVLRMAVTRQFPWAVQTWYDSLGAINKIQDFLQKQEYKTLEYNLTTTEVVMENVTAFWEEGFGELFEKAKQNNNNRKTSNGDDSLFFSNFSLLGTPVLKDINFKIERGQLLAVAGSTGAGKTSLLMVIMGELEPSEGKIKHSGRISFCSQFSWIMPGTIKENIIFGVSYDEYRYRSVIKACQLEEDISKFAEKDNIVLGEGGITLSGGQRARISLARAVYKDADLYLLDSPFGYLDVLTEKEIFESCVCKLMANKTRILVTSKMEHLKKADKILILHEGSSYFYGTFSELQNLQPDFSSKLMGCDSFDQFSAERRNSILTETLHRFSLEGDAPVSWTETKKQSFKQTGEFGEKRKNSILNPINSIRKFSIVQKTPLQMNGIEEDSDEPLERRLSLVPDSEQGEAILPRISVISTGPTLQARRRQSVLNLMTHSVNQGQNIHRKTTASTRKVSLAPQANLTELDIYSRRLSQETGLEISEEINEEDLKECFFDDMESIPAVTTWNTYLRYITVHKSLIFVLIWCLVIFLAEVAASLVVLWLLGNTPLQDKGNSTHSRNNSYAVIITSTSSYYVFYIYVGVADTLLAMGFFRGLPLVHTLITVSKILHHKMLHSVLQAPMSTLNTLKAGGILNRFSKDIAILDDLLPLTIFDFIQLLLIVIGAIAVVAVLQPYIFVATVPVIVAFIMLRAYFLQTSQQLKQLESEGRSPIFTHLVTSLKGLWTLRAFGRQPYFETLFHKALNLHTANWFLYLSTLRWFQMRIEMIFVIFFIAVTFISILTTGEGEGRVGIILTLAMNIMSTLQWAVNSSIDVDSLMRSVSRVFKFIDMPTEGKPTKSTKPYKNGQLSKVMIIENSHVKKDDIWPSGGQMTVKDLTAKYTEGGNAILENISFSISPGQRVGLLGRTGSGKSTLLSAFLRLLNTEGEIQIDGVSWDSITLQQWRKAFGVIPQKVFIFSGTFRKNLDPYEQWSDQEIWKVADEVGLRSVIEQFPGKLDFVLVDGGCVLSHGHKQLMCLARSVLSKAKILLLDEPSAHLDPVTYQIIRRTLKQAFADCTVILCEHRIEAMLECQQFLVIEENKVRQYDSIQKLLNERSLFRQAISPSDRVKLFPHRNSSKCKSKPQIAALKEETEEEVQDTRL

What was measured:
WT-CFTR = WT-CFTR (Homo sapiens, UniProt P13569); assay: Halide-sensitive YFP microplate reader assay of CFTR potentiation, WT-CFTR; conditions: read-out: EC50 (μM) WT- CFTR, FRT cells, 0.1 μM forskolin
Method: (§1) FRT cells expressing wild type- or ΔF508-CFTR with the halide sensor YFP-H148Q/I152L were plated in 96-well black-walled microplates (Corning Inc., Corning, NY) at a density of 2 x10^4cells per well. FRT-WT-CFTR-YFP cells were incubated for 48 h at 37°C, and FRT-ΔF508-CFTR-YFP cells were incubated for 24 h at 27°C after 24 h incubation at 37°C to rescue ΔF508-CFTR localization. Assays were done using FLUO star Omega microplate reader (BMG Labtech, Ortenberg, Germany) and MARS Data Analysis Software (BMG Labtech). Each well of a 96-well plate was washed 3 times in PBS (200 μL/wash). 100 μL PBS was added to each well. Forskolin (0.1 and 10 μM for WT- and ΔF508-CFTR, respectively) and test compounds (1 μL) were added to each well. After 10 min, 96-well plates were transferred to the microplate reader preheated to 37°C for fluorescence assay. Each well was assayed individually for CFTR-mediated I^- influx by recording fluorescence continuously (200 ms per point) for 2 s (baseline), then 100 μL of 140 mM I^- solution was added at 2 s and then YFP fluorescence was recorded for 14 s. Initial iodide influx rate was determined from the initial slope of fluorescence decrease, by nonlinear regression, following infusion of iodide.

ΔF508-CFTR = ΔF508-CFTR (Homo sapiens, UniProt P13569, DEL508-508); assay: Halide-sensitive YFP microplate reader assay of CFTR potentiation, ΔF508-CFTR; conditions: for EC50 (μM) ΔF508-CFTR: FRT cells rescued at 27°C, 10 μM forskolin; for EC50: read-out: EC50 (μM) ΔF508-CFTR, FRT cells rescued at 27°C, 10 μM forskolin
Method: as §1

SMILES | EC50 (WT-CFTR) [µM] | EC50 (μM) ΔF508-CFTR (ΔF508-CFTR) | EC50 (ΔF508-CFTR)
COc1ccc(C2CC(c3c(O)cccc3O)=NN2c2ccc(S(N)(=O)=O)cc2)cc1OC (centres unmarked) | 24.3 | inactive | –
COc1ccc(C2CC(c3cc(C)ccc3O)=NN2c2ccc(S(N)(=O)=O)cc2)cc1OC (centres unmarked) | 38.6 | – | 83 µM
COc1ccc(C2CC(c3c(O)cccc3OC)=NN2c2ccc(S(N)(=O)=O)cc2)cc1OC (centres unmarked) | 50.6 | inactive | –
COc1cccc(C2CC(c3ccc(O)cc3O)=NN2c2ccc(S(N)(=O)=O)cc2)c1OC (centres unmarked) | 12.7 | – | < 10 µM and 8.6 µM
COc1ccc(C2CC(c3cc(Cl)ccc3O)=NN2c2ccc(S(N)(=O)=O)cc2)cc1OC (centres unmarked) | 41.2 | inactive | –
COc1ccc(C2CC(c3c(O)cccc3O)=NN2c2ccc(S(N)(=O)=O)cc2)c(OC)c1 (centres unmarked) | 27 | – | 38.5 µM
COc1cccc(C2CC(c3c(O)cccc3O)=NN2c2ccc(S(N)(=O)=O)cc2)c1OC (centres unmarked) | 8.7 | – | 42.2 µM
COc1ccc(C2CC(c3c(O)cccc3OC)=NN2c2ccc(S(N)(=O)=O)cc2)c(OC)c1 (centres unmarked) | 63.3 | inactive | –
COc1ccc(C2CC(c3ccc(O)cc3O)=NN2c2ccc(S(N)(=O)=O)cc2)cc1OC (centres unmarked) | 2.4 | – | < 10 µM and 8.9 µM
COc1cccc(C2CC(c3cc(Cl)ccc3O)=NN2c2ccc(S(N)(=O)=O)cc2)c1OC (centres unmarked) | 92.5 | inactive | –
COc1ccc(C2CC(c3cc(Cl)ccc3O)=NN2c2ccc(S(N)(=O)=O)cc2)c(OC)c1 (centres unmarked) | 13.1 | inactive | –
COc1cccc(C2CC(c3c(O)cccc3OC)=NN2c2ccc(S(N)(=O)=O)cc2)c1OC (centres unmarked) | 56.5 | inactive | –
COc1ccc(C2CC(c3cc(C)ccc3O)=NN2c2ccc(S(N)(=O)=O)cc2)c(OC)c1 (centres unmarked) | 10.9 | inactive | –
